This is a selection; strong and weak results do not stand in their true shares. The source made the active and inactive calls. No stated cut-off is given here; in the data, active means inhibition above about 22%; inactive means the rest.
Target: Melanin-concentrating hormone receptor 1 (Homo sapiens) (UniProt Q99705)
Assay: MCHR1 antagonists in cells, counter-screen for GPR7 antagonist project, cell-based, fluorescence, human (AID 2148);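 further: 0% = vehicle with agonist and 100% = vehicle without agonist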
Settings: MCHR1-expressing cells, fluorescence antagonist assay; at 4.4 µM; stronger effect = higher value

Q: For `O=c1c2cc([N+](=O)[O-])ccc2[nH]c2c([N+](=O)[O-])cc([N+](=O)[O-])cc12`, which inhibition is on record?
A: The inhibition was active: 56.4%.

Q: `COc1ccccc1OP(=O)(Nc1ccc(C)cn1)Oc1ccccc1OC` was tested. Which inhibition did it give?
A: Its inhibition is active: 31.4%.
